What is called Emax is the size of the effect at its maximum, as opposed to the concentration needed.

Data on 3 compounds can be found in ChEMBL document CHEMBL5233265, “Recent advances in the design and development of formyl peptide receptor 2 (FPR2/ALX) agonists as pro-resolving agents with diverse therapeutic potential” (Eur J Med Chem, 2021).

Test [1] has as its target T1, fMet-Leu-Phe receptor (Homo sapiens) (UniProt P21462).
T1 sequence (whole entry): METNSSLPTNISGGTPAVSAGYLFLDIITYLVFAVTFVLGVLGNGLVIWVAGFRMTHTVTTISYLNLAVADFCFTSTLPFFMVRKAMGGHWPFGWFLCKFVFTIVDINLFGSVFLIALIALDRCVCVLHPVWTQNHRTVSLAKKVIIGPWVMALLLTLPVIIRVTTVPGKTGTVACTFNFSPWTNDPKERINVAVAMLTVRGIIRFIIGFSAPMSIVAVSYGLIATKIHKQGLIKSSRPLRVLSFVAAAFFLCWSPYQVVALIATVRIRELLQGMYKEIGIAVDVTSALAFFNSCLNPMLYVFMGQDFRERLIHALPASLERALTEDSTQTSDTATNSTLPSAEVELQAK
In words: Agonist activity at human FPR1 transfected in HL-60 cells assessed as maximal intracellular calcium flux incubated for 30 mins by Fluo-4 AM dye based fluorometer analysis relative to control. In kind it is cell-based. Particulars: filed as agonist. Background: Calcium flux is commonly read through the fluorescence of an indicator in the cells.

Test [2] deals with T2, N-formyl peptide receptor 2 (Homo sapiens) (UniProt P25090).
T2 sequence (whole entry): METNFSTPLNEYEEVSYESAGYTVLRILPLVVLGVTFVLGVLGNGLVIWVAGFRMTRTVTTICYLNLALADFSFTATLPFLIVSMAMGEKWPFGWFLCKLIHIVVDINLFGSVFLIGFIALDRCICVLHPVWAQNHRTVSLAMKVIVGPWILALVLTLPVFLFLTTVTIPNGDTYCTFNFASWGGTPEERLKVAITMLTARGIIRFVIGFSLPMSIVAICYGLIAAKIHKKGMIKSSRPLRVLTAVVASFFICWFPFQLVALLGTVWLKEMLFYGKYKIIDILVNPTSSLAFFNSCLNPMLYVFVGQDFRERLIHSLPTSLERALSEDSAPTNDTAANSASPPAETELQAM
As to the kind of experiment: Agonist activity at human FPR2 expressed in HEK cells assessed as maximal calcium flux incubated for 40 mins by Fluo-4 staining based FLIPR assay relative to control. In kind it is cell-based.

Consider `COc1ccc(NC(=O)N[C@@H](Cc2ccc(C#N)cc2)C(=O)NCC2(c3cccc(O)c3)CC2)cc1`, for which, in test [1], the Emax turned out to be 100%. As for `CC(C)C[C@H](NC(=O)Nc1ccc(Br)cc1F)C(=O)NCC(=O)O`, the Emax in test [2] was determined as 1%. In the case of `COc1ccc(NC(=O)N[C@@H](Cc2ccc(C#N)cc2)C(=O)NCC2(c3ccc(O)cc3)CC2)cc1`, the maximal effect (Emax) in test [1] is 120%.
